Where “and” joins values, the source holds several entries; their conditions need not be identical. Equal values may be shown once. Read-outs that look alike come from different tables or passages of the source.
Key:
eIF1A-RPS10 interaction = eIF1A-RPS10 interaction (Homo sapiens, UniProt P46783+P47813); assay: Split-Renilla luciferase eIF1A-RPS10 interaction screen, dose-response; format: biochemical; settings: read-out: IC50 concentration (µM), IC50 screen; summary table
[1] = test system: CUG/GUG vs AUG start codon luciferase reporters in HEK293T cells; assay: Near-cognate AUG starting codon fidelity reporter assay (GUG, CUG vs AUG); format: cell-based
[2] = biological target: eIF1A-RPS10 interaction in HEK293T cells (Homo sapiens, UniProt P46783+P47813); assay: Proximity ligation assay (PLA); format: cell-based; settings: 3 h
[3] = test system: luciferase reporter mRNA in HEK293T cells; assay: Reporter gene mRNA levels by qPCR after 1Ais treatment; format: cell-based; settings: five reporter genes
eIF1A = eIF1A (Homo sapiens, UniProt P47813)
RPS10 = RPS10 (Homo sapiens, UniProt P46783)
[4] = test system: IRF7 5'UTR firefly luciferase reporter in HEK293T cells;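 note: luciferase signal corrected by a co-transfected GFP reporter for transfection efficiency, read after overnight compound exposure, with Long and Short reporters differing in 5'UTR length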
[5] = test system: uORF-bearing 5'UTR firefly reporters in HEK293T cells; assay: uORF reinitiation / leaky scanning firefly reporters

Protein sequences, listed by entry. Tags and fused reporters are not part of them.
UniProt P47813, whole entry: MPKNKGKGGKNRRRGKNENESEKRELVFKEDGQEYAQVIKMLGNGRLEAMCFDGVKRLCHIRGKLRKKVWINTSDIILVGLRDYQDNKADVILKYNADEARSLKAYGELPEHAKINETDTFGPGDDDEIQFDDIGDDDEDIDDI

## COc1cc2nccc(Oc3ccc(NC(=O)Nc4cc(C)on4)c(Cl)c3)c2cc1OC
eIF1A-RPS10 interaction
  IC50: 14 µM
[1]
  near-cognate start codon translation: increased translation from near-cognate AUG starting codons
[1]; CUG start codon reporter relative to AUG reporter (AUG = 100), compound at 20uM (summary head), single-experiment calculation
  CUG vs AUG (%): 7.488%
[1]; GUG start codon reporter relative to AUG reporter (AUG = 100), compound at 20uM (summary head), single-experiment calculation
  GUG vs AUG (%): 2.5747%
[1]; NUG experiment
  average CUG and GUG: 6.257
[1]; NUG experiment, CUG vs AUG reporter
  CUG Average: 9.333
[1]; NUG experiment, GUG vs AUG reporter
  GUG Average: 3.18
[1]; average CUG and GUG relative to DMSO, 20 µM overnight
  NUG (Final data, Fig. 1E): 1.387
[1]; compound at 20uM, individual repeat, listed as 4927
  GUG vs AUG data (%): 4.37% and 2.52% and 2.65%
[1]; compound at 20uM, summary average of repeats, DMSO control average […]
  GUG vs AUG (%) Average: 3.18%
[1]; listed as 4927
  calculation: CUG (AUG = 100): 9.358 and 9.014
  calculation: GUG (AUG = 100): 4.366 and 4.155
[2]
  RPS10-eIF1A PLA interaction signal: reduced the interaction but to a lesser extent
[3]
  effect on reporter mRNA levels: did not exhibit any apparent effect on the mRNA levels
eIF1A
  WT eIF1A IC50: No binding
eIF1A; summary table, fluorescence binding assay
  IC50 concentration (µM), WT eIF1A: No binding
RPS10
  binding of RPS10: binds only RPS10
RPS10; 4M Urea
  binding to native and denatured Rps10: binding was detected with the native but not denatured Rps10
RPS10; read-out: IC50 (line under RPS10 binding data)
  IC50: 6.1 µM
RPS10; read-out: IC50 concentration (µM), RPS10, summary table, fluorescence binding assay
  IC50: 6.1 µM
RPS10; read-out: RPS10 IC50
  IC50: 6.1 µM
[4]
  IRF7 5'UTR reporter translation: selectively decreased translation from IRF7 5'UTR
[4]; 1/Result, relative to DMSO, 20 µM
  Reference vs IRF7 (Final data, Fig. 1E): 2.739
[4]; Long reporter, 20 µM, individual replicates, DMSO = 1, listed as 4927
  Long (Summary - top 3 1Ais), normalized to DMSO: 0.39 and 0.21 and 0.14 (2×)
[4]; Long reporter, 20 µM, individual replicates, outliers excluded, DMSO = 1, listed as 4927
  LONG (summary - All), normalized to DMSO: 0.39 and 0.21 and 0.14 (2×)
[4]; Short reporter, 20 µM, individual replicates, outliers excluded, DMSO = 1, listed as 4927
  SHORT (summary - All), normalized to DMSO: 0.58 and 0.57 and 0.49
[5]; 20uM (1Ai-5175 at 5uM), overnight
  effect on uORF / leaky scanning reporters: no differential effects were observed
[5]; 46 leaky reporter, average of biological repeats
  normalized to DMSO, 46 leaky, average: 0.645
[5]; 95nt experiment 240822, block FF-4927, reporter minus46, DMSO 0.736966
  averages of FF vs RL 2: 0.4915 and 0.5526 and 0.4683
[5]; 95nt experiment 240822, block FF-4927, reporter minus 95, DMSO 0.940113
  averages of FF vs RL 2: 0.5271 and 0.5757 and 0.7211
[5]; 95nt experiment 240822, block FF-4927, reporter ref, DMSO 1.84824
  averages of FF vs RL 2: 1.232 and 1.092 and 1.217
[5]; 95nt experiment, block FF-1 (c104), reporter minus46, DMSO 0.0248618
  averages of FF vs RL: 0.02647
[5]; 95nt experiment, block FF-1 (c104), reporter minus 46, DMSO 2.74E-02, 2.23E-02
  FF vs RL: 2.77E-02 and 2.53E-02
[5]; 95nt experiment, block FF-1 (c104), reporter minus 95, DMSO 0.0251627
  averages of FF vs RL: 0.01437
[5]; 95nt experiment, block FF-1 (c104), reporter ref, DMSO 0.0298915
  averages of FF vs RL: 0.03122
[5]; 95nt experiment, block FF-1 (c104), reporter reference, DMSO 2.79E-02, 3.19E-02
  FF vs RL: 2.79E-02 and 3.45E-02
[5]; 95nt experiment, block FF-1 (c131), reporter minus 46, DMSO 0.17626, 0.185518
  FF vs RL: 0.07695 and 0.08587
[5]; 95nt experiment, block FF-1 (c131), reporter minus46, DMSO 0.180889
  averages of FF vs RL: 0.08141
[5]; 95nt experiment, block FF-1 (c131), reporter minus 46 plus 50, DMSO 0.437858, 0.481275
  FF vs RL: 0.1444 and 0.1903
[5]; 95nt experiment, block FF-1 (c131), reporter minus 95, DMSO 0.459566
  averages of FF vs RL: 0.1674
[5]; 95nt experiment, block FF-1 (c131), reporter ref, DMSO 0.345569
  averages of FF vs RL: 0.1753
[5]; 95nt experiment, block FF-1 (c131), reporter reference, DMSO 0.39984, 0.291299
  FF vs RL: 0.2058 and 0.1448
[5]; 95nt experiment, block FF-2 (c113), reporter minus46, DMSO 0.0506669
  averages of FF vs RL 2: 0.02855
[5]; 95nt experiment, block FF-2 (c113), reporter minus 46, DMSO 3.43E-02, 5.07E-02
  FF vs RL 2: 3.02E-02 and 2.69E-02
[5]; 95nt experiment, block FF-2 (c113), reporter minus 46 plus 50, DMSO 3.05E-02, 1.38E-02
  FF vs RL 2: 2.74E-02 and 1.69E-02
[5]; 95nt experiment, block FF-2 (c113), reporter minus 95, DMSO 0.0221428
  averages of FF vs RL 2: 0.02213
[5]; 95nt experiment, block FF-2 (c113), reporter ref, DMSO 0.0383109
  averages of FF vs RL 2: 0.03757
[5]; 95nt experiment, block FF-2 (c113), reporter reference, DMSO 3.69E-02, 3.97E-02
  FF vs RL 2: 3.81E-02 and 3.70E-02
[5]; -46 reporter, average of biological repeats
  normalized to DMSO, -46, average: 0.655
[5]; experiment 13.03.24, single replicates, not normalized to DMSO, listed as 4927
  ff/rl, 46 leaky reporter: 5.93E-02 and 2.78E-02 and 4.13E-02
[5]; minus46 reporter, average
  95nt from uORF to main ORF experiment, minus46, average (DMSO = 1): 0.6884
[5]; minus 95 (nt) reporter, 95nt from uORF to main ORF experiment, Figure 4N source data, replicate experiments, DMSO = 1
  reporter activity norm to DMSO, minus 95: 0.5607 and 0.9992
[5]; minus 95nt reporter, average
  95nt from uORF to main ORF experiment, minus 95nt, average (DMSO = 1): 0.6458
[5]; ref reporter, average
  95nt from uORF to main ORF experiment, ref, average (DMSO = 1): 0.7413
[5]; refference reporter, average of biological repeats
  normalized to DMSO, refference, average: 0.742
[5]; refference reporter, biological repeats 1-4, listed as 4927
  normalized to DMSO, refference, biological repeats: 0.773 and 0.935 and 0.825
[5]; reporter 46, experiment 12.3.24, DMSO = 1
  normalize to DMSO, average: 0.7887
[5]; reporter 46, experiment 13.3.24, DMSO = 1
  normalize to DMSO, average: 0.5542
[5]; reporter 46 leaky, experiment 12.3.24, DMSO = 1
  normalize to DMSO, average: 0.7519
[5]; reporter 46 leaky, experiment 13.3.24, DMSO = 1
  normalize to DMSO, average: 0.5035
[5]; reporter 46 leaky, experiment 13.3.24, listed as 4927
  normalized to DMSO, single replicates: 6.97E-01 and 3.27E-01 and 4.86E-01
[5]; reporter normal (refference), experiment 13.3.24, listed as 4927
  normalized to DMSO, single replicates: 6.73E-01 and 9.77E-01
[5]; reporter refference, experiment 12.3.24, DMSO = 1
  normalize to DMSO, average: 0.8543

— publication PMC12216609, “Inhibitors of eIF1A-ribosome interaction unveil uORF-dependent regulation of translation initiation and antitumor and antiviral effects” (The EMBO Journal, 2025)
